The entries are a selection whose mix differs from that of the whole data set. Active and inactive are the calls of the source. Calls come from the whole dose curve; as a rule, active = well fitted curve in either direction with a large enough effect; inconclusive = small, poorly fitted or top-dose-only effect; inactive = flat fitted curve, though single readings scatter.
Experiment: Total Fluorescence Counterscreen for Inhibitors of the Interaction of Thyroid Hormone Receptor and Steroid Receptor Coregulator 2
Conditions: TRb/SRC2 Texas Red total fluorescence interference
% is set by controls: 0 for no effect and ±100 for the full control effect.

## Cc1cc(C)cc(OP(C)(N)=O)c1 (centres undefined)
At 106 µM (top of the series)
  fluorescence change, negative = quenching: inactive: -1.41%

## COc1ccc(OP(C)(=O)Nc2cccc(F)c2)cc1 (centres undefined)
At 106 µM (top of the series)
  fluorescence change, negative = quenching: inactive: -0.999%

## COc1ccccc1OP(C)(=O)Nc1cc(Cl)ccc1C (centres undefined)
At 53 µM (top of the series)
  fluorescence change, negative = quenching: inactive: 1.51%

## Cc1ccc(NP(C)(=O)Oc2ccccc2)c(C)c1 (centres undefined)
At 106 µM (top of the series)
  fluorescence change, negative = quenching: inactive: 0.24%

## COc1ccccc1OP(C)(=O)Nc1ccc(C)cc1 (centres undefined)
At 106 µM (top of the series)
  fluorescence change, negative = quenching: inactive: 0.0863%

## CCOC(=O)c1ccc(NP(C)(=O)Oc2ccccc2)cc1 (centres undefined)
At 106 µM (top of the series)
  fluorescence change, negative = quenching: inactive: -0.1%

## O=[N+]([O-])c1ccc2c(c1)C=Nc1ccccc1O2
At 106 µM (top of the series)
  fluorescence change, negative = quenching: inactive: -1.54%

## O=C(O)C(O)(c1ccccc1)c1ccccc1
At 106 µM (top of the series)
  fluorescence change, negative = quenching: inactive: -2.13%

## Cc1cccc(C)c1OP(C)(N)=O (centres undefined)
At 106 µM (top of the series)
  fluorescence change, negative = quenching: inactive: 2.42%

## CC(C)(C)c1ccc(OP(C)(=O)Nc2ccc(SC(F)(F)F)cc2)cc1 (centres undefined)
At 106 µM (top of the series)
  fluorescence change, negative = quenching: inactive: -3.9%

## O=[N+]([O-])[O-].[NH4+]
At 106 µM (top of the series)
  fluorescence change, negative = quenching: inactive: -0.607%

## CP(=O)(Nc1ccccn1)Oc1ccc(Cl)cc1 (centres undefined)
At 106 µM (top of the series)
  fluorescence change, negative = quenching: inactive: -0.0029%

## CN(C)CCS
At 106 µM (top of the series)
  fluorescence change, negative = quenching: inactive: -2.83%

## CCOC(=O)c1ccc(NP(C)(=O)Oc2ccc(OC)cc2)cc1 (centres undefined)
At 106 µM (top of the series)
  fluorescence change, negative = quenching: inactive: -0.0827%

## CCOP(C)(=S)SCC(=O)NC(C)C(=O)O (centres undefined)
At 106 µM (top of the series)
  fluorescence change, negative = quenching: inactive: 1.18%

## Cc1cc(C)cc(OP(C)(=O)Nc2ccc(SC(F)(F)F)cc2)c1 (centres undefined)
At 106 µM (top of the series)
  fluorescence change, negative = quenching: inactive: 0.875%

## CCc1ccc(OP(C)(=O)N2CCN(c3ccc([N+](=O)[O-])cc3)CC2)cc1 (centres undefined)
At 106 µM (top of the series)
  fluorescence change, negative = quenching: inactive: -8.01%

## CP(=O)(NC(=O)Nc1ccccc1)Oc1ccccc1 (centres undefined)
At 106 µM (top of the series)
  fluorescence change, negative = quenching: inactive: -1.05%

## CP(=O)(Oc1ccccc1)OC(c1ccccc1)C(F)(F)F (centres undefined)
At 106 µM (top of the series)
  fluorescence change, negative = quenching: inactive: -1.16%

## Cc1cccc(C)c1OP(C)(=O)Nc1ccc(SC(F)(F)F)cc1 (centres undefined)
At 106 µM (top of the series)
  fluorescence change, negative = quenching: inactive: 1.13%

## CP(=O)(Nc1ccc(SC(F)(F)F)cc1)Oc1ccc(Cl)cc1 (centres undefined)
At 106 µM (top of the series)
  fluorescence change, negative = quenching: inactive: -0.436%

## CP(=O)(Nc1ccccc1Br)Oc1ccccc1 (centres undefined)
At 106 µM (top of the series)
  fluorescence change, negative = quenching: inactive: 2.39%

## COc1ccccc1OP(C)(=O)Nc1ccccc1 (centres undefined)
At 106 µM (top of the series)
  fluorescence change, negative = quenching: inactive: -5.74%

## CP(=S)(Nn1cnnc1)Oc1ccccc1 (centres undefined)
At 106 µM (top of the series)
  fluorescence change, negative = quenching: inactive: 0.151%

## CP(=O)(Nc1ccc(SC(F)(F)F)cc1)Oc1ccccc1 (centres undefined)
At 106 µM (top of the series)
  fluorescence change, negative = quenching: inactive: -2.67%

## CCCOc1ccc(NP(C)(=O)Oc2ccc(Cl)cc2)cc1 (centres undefined)
At 106 µM (top of the series)
  fluorescence change, negative = quenching: inactive: 0.435%

## COc1ccccc1OP(C)(=O)Nc1c(C)cccc1C (centres undefined)
At 106 µM (top of the series)
  fluorescence change, negative = quenching: inactive: -3.64%

## CN1CCCCC1COC(=O)C1(O)c2ccccc2CCc2ccccc21 (centres undefined)
At 106 µM (top of the series)
  fluorescence change, negative = quenching: inactive: -0.467%

## O=[N+]([O-])c1cc([N+](=O)[O-])c(Nc2nnnn2CCO)c([N+](=O)[O-])c1
At 106 µM (top of the series)
  fluorescence change, negative = quenching: inactive: -2.25%

## Cc1nc2ccc3ccccc3c2s1.O=[N+]([O-])c1cc([N+](=O)[O-])c(O)c([N+](=O)[O-])c1
At 106 µM (top of the series)
  fluorescence change, negative = quenching: inactive: -1.32%

## CC(C)N(CCCl)C(C)C
At 106 µM (top of the series)
  fluorescence change, negative = quenching: inactive: -0.454%

## O=[N+]([O-])c1cc([N+](=O)[O-])c(-n2nnc3ccccc32)c([N+](=O)[O-])c1
At 106 µM (top of the series)
  fluorescence change, negative = quenching: inactive: -1.32%

## Cc1ccc(C)c(NP(C)(=O)Oc2ccccc2)c1 (centres undefined)
At 106 µM (top of the series)
  fluorescence change, negative = quenching: inactive: 2.82%

## CP(=O)(Nc1cccc(Br)c1)Oc1ccccc1 (centres undefined)
At 106 µM (top of the series)
  fluorescence change, negative = quenching: inactive: 0.456%

## Cc1cc(C)cc(OP(C)(=O)Nc2ccccn2)c1 (centres undefined)
At 106 µM (top of the series)
  fluorescence change, negative = quenching: inactive: 1.67%

## CCOC(=O)c1ccc(NP(C)(=O)Oc2cc(C)cc(C)c2)cc1 (centres undefined)
At 106 µM (top of the series)
  fluorescence change, negative = quenching: inactive: -1.19%

## Cc1cc(C)cc(OP(C)(=O)Nc2ccc(C)cc2C)c1 (centres undefined)
At 106 µM (top of the series)
  fluorescence change, negative = quenching: inactive: -5.02%

## COc1ccccc1OP(C)(=O)Nc1cccc(Br)c1 (centres undefined)
At 106 µM (top of the series)
  fluorescence change, negative = quenching: inactive: 1.16%

## CC1=NCCc2c1[nH]c1ccccc21.O=[N+]([O-])c1cc([N+](=O)[O-])c(O)c([N+](=O)[O-])c1
At 106 µM (top of the series)
  fluorescence change, negative = quenching: inactive: 0.739%

## Cc1ccc([N+](=O)[O-])cc1[N+](=O)[O-]
At 106 µM (top of the series)
  fluorescence change, negative = quenching: inactive: -3.8%
At 201 µM (top of the series)
  fluorescence change, negative = quenching: inactive: -4.44%

## O=[N+]([O-])OCC(CO[N+](=O)[O-])(CO[N+](=O)[O-])CO[N+](=O)[O-]
At 106 µM (top of the series)
  fluorescence change, negative = quenching: inactive: -1.16%

## CCOP(=S)(CC)Oc1cc(Cl)c(Cl)cc1Cl (centres undefined)
At 201 µM (top of the series)
  fluorescence change, negative = quenching: inactive: 1.4%

## O=[N+]([O-])c1cccc([N+](=O)[O-])c1
At 106 µM (top of the series)
  fluorescence change, negative = quenching: inactive: -1.26%
At 201 µM (top of the series)
  fluorescence change, negative = quenching: inactive: -2.11%

## CP(=O)(Nc1ccccc1)Oc1ccc(F)cc1 (centres undefined)
At 106 µM (top of the series)
  fluorescence change, negative = quenching: inactive: 0.784%

## CCCCCOc1ccc(NP(C)(=O)Oc2ccc(Cl)cc2Cl)cc1 (centres undefined)
At 106 µM (top of the series)
  fluorescence change, negative = quenching: inactive: -2.08%

## CCN(CC)CCCOC(=O)C(O)(c1ccccc1)C1CCCCC1 (centres undefined)
At 106 µM (top of the series)
  fluorescence change, negative = quenching: inactive: 1.92%

## CCOC(=O)c1ccc(NP(C)(=O)Oc2ccc(F)cc2)cc1 (centres undefined)
At 106 µM (top of the series)
  fluorescence change, negative = quenching: inactive: -1.3%

## COc1ccc(OP(C)(=O)Nc2ccc(SC(F)(F)F)cc2)cc1 (centres undefined)
At 106 µM (top of the series)
  fluorescence change, negative = quenching: inactive: -1.02%

## Cc1cccc([N+](=O)[O-])c1[N+](=O)[O-]
At 106 µM (top of the series)
  fluorescence change, negative = quenching: inactive: 0.0962%
At 201 µM (top of the series)
  fluorescence change, negative = quenching: inactive: -1.31%

## CCC(C)(OO)OOC(C)(CC)OO (centres undefined)
At 106 µM (top of the series)
  fluorescence change, negative = quenching: inactive: 0.674%
At 201 µM (top of the series)
  fluorescence change, negative = quenching: inactive: -2.71%

## O=C(OCCN1CCN(CCOCc2ccccc2)CC1)C(O)(c1ccccc1)c1ccccc1
At 53 µM (top of the series)
  fluorescence change, negative = quenching: inactive: -0.404%

## CP(=O)(Nc1ccccc1F)Oc1ccccc1 (centres undefined)
At 106 µM (top of the series)
  fluorescence change, negative = quenching: inactive: 0.499%

## CC(C)c1ccc(OP(C)(=O)Nc2ccc(SC(F)(F)F)cc2)cc1 (centres undefined)
At 106 µM (top of the series)
  fluorescence change, negative = quenching: inactive: 0.0092%

## [NH4+].[O-][Cl+3]([O-])([O-])[O-]
At 106 µM (top of the series)
  fluorescence change, negative = quenching: inactive: -1.85%

## Cc1ccccc1NP(C)(=O)Nc1ccccc1C
At 106 µM (top of the series)
  fluorescence change, negative = quenching: inactive: -4.74%

## CP(=O)(Nc1ccc2c(c1)OCCO2)Oc1ccccc1 (centres undefined)
At 106 µM (top of the series)
  fluorescence change, negative = quenching: inactive: -6.5%

## CCOP(C)(=S)SCC(=O)NC(C)(CC)C(=O)O (centres undefined)
At 106 µM (top of the series)
  fluorescence change, negative = quenching: inactive: -4.27%

## CCOP(=O)(CC)OCC
At 106 µM (top of the series)
  fluorescence change, negative = quenching: inactive: -0.855%

## CP(=O)(Nc1ccc(SC(F)(F)F)cc1)Oc1ccc(F)cc1 (centres undefined)
At 106 µM (top of the series)
  fluorescence change, negative = quenching: inactive: -2.2%

## O=[N+]([O-])c1ccc(OP2(=O)COCCO2)cc1 (centres undefined)
At 106 µM (top of the series)
  fluorescence change, negative = quenching: inactive: -2.45%

## Cc1cc(-c2cccc3ccccc23)c(C)cn1.O=[N+]([O-])c1cc([N+](=O)[O-])c(O)c([N+](=O)[O-])c1
At 106 µM (top of the series)
  fluorescence change, negative = quenching: inactive: -1.75%

## Cc1ccc([N+](=O)[O-])c([N+](=O)[O-])c1
At 106 µM (top of the series)
  fluorescence change, negative = quenching: inactive: -0.724%
At 201 µM (top of the series)
  fluorescence change, negative = quenching: inactive: -5.25%

## Cc1c([N+](=O)[O-])cccc1[N+](=O)[O-]
At 106 µM (top of the series)
  fluorescence change, negative = quenching: inactive: -1.47%
At 201 µM (top of the series)
  fluorescence change, negative = quenching: inactive: -3.38%
